{"sequences": {"note": "Amino acid sequences for entries named in this document (tags omitted). A change or cut given only in a name is not applied to a line headed by its entry.", "UniProt P13866": "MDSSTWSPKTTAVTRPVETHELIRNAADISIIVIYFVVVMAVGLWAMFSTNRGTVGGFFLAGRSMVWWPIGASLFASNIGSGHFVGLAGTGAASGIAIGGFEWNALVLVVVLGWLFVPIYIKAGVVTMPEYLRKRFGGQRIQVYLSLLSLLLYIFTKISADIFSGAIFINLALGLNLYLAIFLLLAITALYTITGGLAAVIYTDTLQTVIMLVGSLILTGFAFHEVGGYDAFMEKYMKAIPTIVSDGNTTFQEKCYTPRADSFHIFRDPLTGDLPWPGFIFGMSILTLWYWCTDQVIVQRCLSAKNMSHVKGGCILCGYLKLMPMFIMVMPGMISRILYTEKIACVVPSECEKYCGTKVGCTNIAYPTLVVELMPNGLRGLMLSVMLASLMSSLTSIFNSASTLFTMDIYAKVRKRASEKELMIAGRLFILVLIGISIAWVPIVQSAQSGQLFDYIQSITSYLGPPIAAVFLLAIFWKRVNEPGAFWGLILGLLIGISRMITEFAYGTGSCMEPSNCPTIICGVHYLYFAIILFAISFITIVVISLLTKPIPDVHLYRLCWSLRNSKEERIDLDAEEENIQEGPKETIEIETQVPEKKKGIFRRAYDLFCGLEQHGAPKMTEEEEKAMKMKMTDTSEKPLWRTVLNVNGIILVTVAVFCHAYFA"}, "source": "paper PMC6664820", "about": "“Novel natural and synthetic inhibitors of solute carriers SGLT1 and SGLT2” (Pharmacology Research & Perspectives, 2019)", "note": "This list holds what a sample rich in strong results left over.", "data": [{"biological_target": "human SGLT1 (hSGLT1) (human, UniProt P13866)", "experiment": "primary screen, percent of control activity; higher = less effect of the substance", "set-up": "single well", "details": "50 µM", "units": {"NORMALIZED SGLT1 ACTIVITY (%)": "%"}, "values": [{"compound": "CC(C)C[C@H](NC(=O)[C@@H]1CCCN1C(=O)[C@@H](N)C(C)C)C(=O)O", "NORMALIZED SGLT1 ACTIVITY (%)": 112}]}]}
